Data taken from patent US7371773B2, “Breast cancer resistance protein (BCRP) inhibitor” (Kabushiki Kaisha Yakult Honsha, priority 2003, dated 2008).

Test system: A549/SN-38-4 cell line
Experiment: Overcoming anticancer drug resistance of A549/SN-38-4 cell line
Format: cell-based, human
Conditions: SN-38 resistance, concentration for 50% reduction of relative resistance value, 48 hours
Protocol: The effect of a diphenylacrylonitrile derivative on BCRP-mediated anticancer drug resistance was studied by use of the human lung cancer A549/SN-38-4 cell line, which had acquired anticancer drug resistance through BCRP expression. The human lung cancer A549 cell line or the A549/SN-38-4 cell line was suspended in 10% FBS/Ham's F-12, and the resultant suspension was inoculated into a 96-well microplate, followed by culturing at 5% CO2 and 37° C. overnight (2×10^3 cells/50 μL/well). Thereafter, a 10% FBS/Ham's F-12 solution (25 μL) containing a diphenylacrylonitrile derivative and SN-38 or mitoxantrone was added to each of the wells, followed by culturing at 5% CO2 and 37° C. for 48 hours. After completion of culturing, the number of viable cells was counted by use of TetraColor ONE according to the attached instruction manual. […] The greater the relative resistance value, the higher the level of acquired resistance.

Row | Substance | Resistance overcoming effect EC50
1 | mono-{4-[(Z)-2-cyano-2-(3,4-dimethoxy-phenyl)-vinyl]-phenyl} sodium phosphate [Compound 60] | 0.064 µg/mL
2 | mono-{4-[(Z)-2-cyano-2-(3,4-dimethoxy-phenyl)-vinyl]-2-methoxy-phenyl} sodium phosphate [Compound 69] | 0.13 µg/mL
